Only a part is listed here, and it is no random draw. Calls of active or inactive are those of the source.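 Rule for the calls: active = drop in luminescence signal, shown as inhibition above about 50% in the replicate tests (limit read from the data, passing the limit was not always enough); inconclusive = probably only some replicates passing the limit; inactive = the rest.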
Test system: Drosophila bursicon receptor LGR2 (rickets)
Assay: inhibitors of bursicon-induced LGR2 CRE-luciferase signal, primary screen, cell-based, HEK293, CRE-luciferase reporter, bursicon stimulation (AID 720647);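 note: agonist challenge used bursicon conditioned medium at about half maximal strength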
Conditions: bursicon-stimulated, 4 h, at 9.99 µM, stronger effect = higher value

Row | Compound | inhibition
1 | O=c1c2cc([N+](=O)[O-])ccc2[nH]c2c([N+](=O)[O-])cc([N+](=O)[O-])cc12 | active: 97.5%
2 | CN(C)C(=O)Oc1noc2ccccc12 | inactive: 5.27%
3 | CC(NC(=O)COC(=O)C(O)(c1ccccc1)c1ccccc1)c1ccccc1 (stereo not drawn) | inactive: -2.8%
4 | Cc1ccccc1OP(=O)(Nc1ccccn1)Oc1ccccc1C | inactive: 19.9%
5 | O=P(Nc1nc2ccc(Cl)cc2s1)(c1ccccc1)c1ccccc1 | inactive: -2.56%
6 | CN(C)P(=O)(N(C)C)n1c(Nc2ccccc2)nnc1-c1ccccc1 | inactive: -18.3%
7 | CCCC1OP(N)(=O)OCC1CC (stereo not drawn) | inactive: 0.494%
8 | CC(=O)Nc1ccc([As](=O)(O)O)cc1 | inactive: 7.32%
9 | O=C(O)c1ccccc1[As](=O)(O)O | inactive: -14.3%
10 | CCn1c(=O)n(C2CCN(CC3CCCCCCC3)C[C@H]2CO)c2ccccc21 (stereo partly drawn) | inactive: -23%
11 | CN(C(=O)Cc1ccc(Cl)c(Cl)c1)[C@H]1CCCC[C@@H]1N1CCCC1 | inactive: 6.98%
12 | Cc1ccc(NP(=O)(Oc2ccccc2F)Oc2ccccc2F)nc1 | inactive: 8.92%
13 | Cc1cc(SC(NC(=O)c2ccc(F)cc2)C(Cl)(Cl)Cl)ncn1 (stereo not drawn) | inactive: 1.22%
14 | Nc1cccc2ccc([As](=O)(O)O)cc12 | inactive: 5.91%
15 | CCN(N=Nc1nonc1N)c1nonc1N | inactive: 0.514%
16 | CN(C(=O)Cc1ccccc1)C1CC[C@@]2(CCCO2)C[C@@H]1N1CCCC1 (stereo partly drawn) | inactive: 6.48%
17 | CN(C(=O)Cc1ccc(Cl)c(Cl)c1)[C@H]1CCCC[C@H]1N1CCCC1 | inactive: 22.4%
18 | NC(=O)c1cc([N+](=O)[O-])cc([N+](=O)[O-])c1N | inactive: 2.12%
19 | Clc1ccc(Cl)c(NC2=NCC(CBr)S2)c1 (stereo not drawn) | inactive: -8.48%
20 | Cc1ccc(OP(=O)(Nc2nccs2)Oc2ccc(C)cc2)cc1 | inactive: 3.14%
21 | COc1ccccc1OP(=O)(Nc1ccc(C)cn1)Oc1ccccc1OC | inactive: -14.6%
22 | O=C(NC(Sc1ccncn1)C(Cl)(Cl)Cl)c1ccccc1 (stereo not drawn) | inactive: 7.1%

Row | Compound | inhibition
23 | Oc1ccccc1CNc1ccccn1 | inactive: 5.41%
24 | Nc1cc(N)c2nonc2c1[N+](=O)[O-] | inactive: 12.4%
25 | CC(C)CC(=O)NC(Sc1ccc(Cl)cc1)C(Cl)(Cl)Cl (stereo not drawn) | inactive: 16.6%
26 | COc1ccc(C2=NCC(CBr)S2)cc1 (stereo not drawn) | inactive: 0.821%
27 | O=[N+]([O-])c1cc([N+](=O)[O-])c(CCNc2ccccc2)c([N+](=O)[O-])c1 | inactive: -13.5%
28 | Cc1ccc(NP(=O)(Oc2ccccc2)Oc2ccccc2)nc1 | inactive: -4%
29 | CCN(/C(=N/P(=O)(N1CCOCC1)N1CCOCC1)N1CCOCC1)c1ccc(OC)cc1 | inactive: -2.34%
30 | C[N+]1=C2C=CC=CC=C2SC12C([N+](=O)[O-])=CC([N+](=O)[O-])=C[C-]2[N+](=O)[O-] (stereo not drawn) | inactive: -1.07%
31 | Nc1ccc([As](=O)(O)c2ccc(N)cc2)cc1 | inactive: 10.6%
32 | CC1CCN(C(=O)Oc2c(Cl)cc(Cl)c3cccnc23)CC1 | inactive: -0.758%
33 | c1cc(-c2nn[nH]n2)ccc1-c1nn[nH]n1 | inactive: -3.31%
34 | CN(C)C(=O)OCCc1n(C)cc[n+]1C | inactive: -4.69%
35 | CC(C)c1nc(Nc2ccccc2)n(P(=O)(N(C)C)N(C)C)n1 | inactive: 12.8%
36 | CC(C)=N/N=C(\N)N[N+](=O)[O-] | inactive: 1.77%
37 | O=P1(N(CCCl)CCCl)OCCCS1 (stereo not drawn) | inactive: -3.59%
38 | O=C(Nc1cc([As](=O)(O)O)ccc1O)c1ccccc1 | inactive: 2.07%
39 | O=[N+]([O-])c1ncn(CCn2ncnc2[N+](=O)[O-])n1 | inactive: 5.96%
40 | CC(C)(C)C(=O)NC(Sc1ccncn1)C(Cl)(Cl)Cl (stereo not drawn) | inactive: -6.23%
41 | O=C(O)CNc1ccc([As](=O)(O)O)cc1 | inactive: 18%
42 | COC(=O)C1(C)COP(=O)(Nc2ccccc2)OC1 (stereo not drawn) | inactive: 10.5%
43 | O=[N+]([O-])c1cccc(NC2=NCC(CBr)S2)c1 (stereo not drawn) | inactive: -3.78%
